AlphaSeq binding of Ab-14 heavy chain variants to a spike HR2 peptide

From the AlphaSeq antibody data of Engelhart et al. 2022 (doi:10.1038/s41597-022-01779-4), copy in the FLAb collection.

Binding partner: SARS-CoV-2 spike HR2 peptide, sequence PDVDLGDISGINAS.

Parent: Ab-14, a human scFv built as VH, the linker GGGGSGGGGSGGGGS, VL. Only the CDRs of the heavy chain vary.
VH: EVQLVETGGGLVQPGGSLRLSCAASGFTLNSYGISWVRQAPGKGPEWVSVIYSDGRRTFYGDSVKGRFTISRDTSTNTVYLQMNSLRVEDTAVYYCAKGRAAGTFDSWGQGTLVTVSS
VL: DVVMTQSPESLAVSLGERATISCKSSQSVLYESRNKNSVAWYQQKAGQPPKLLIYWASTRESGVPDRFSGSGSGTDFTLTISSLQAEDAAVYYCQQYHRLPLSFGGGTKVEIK

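The starting antibody came from a phage panning campaign against this peptide. In library AAYL49, one, two or three CDR residues were substituted; doubles and triples were drawn at random. The assay is AlphaSeq: two haploid yeast populations carry antibody and antigen on their surface. After mating in shaken culture at 30 °C for 16 h, diploids were selected and their barcode pairs sequenced. Each replicate has its own calibration line, from reference interactions of the BCL2 family. Each pool was mated in three replicate cultures.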

Each variant is given by its three heavy chain CDRs, as the data file delimits them; those of the parent are GFTLNSYGIS, VIYSDGRRTFYGDSVK, GRAAGTFDS. The Kd shown is the geometric mean over detected replicates; a lower Kd is a better binder. An entry "no signal" has no value in the source: the pair was not observed among the diploids in any replicate. This suggests poor binding but is not conclusive.

apparent Kd | detected | CDR-H1 | CDR-H2 | CDR-H3
17 µM | 2/3 | YFTLNSYDIS | VIYSDGRRTFYGDSVK | GRAAGDFDS
no signal | 0/3 | GFTLNSYGIS | VIYSDGRRTFYGDSVK | GRAGGTQDS
13 µM | 2/3 | GFTLNTYGIS | RIYSDGRRTFYGDSVK | GRAAHTFDS
31 µM | 2/3 | GFTLNSYGIS | VIYSMGRRTFYGDCVR | GRAAGTFDS
220 nM | 3/3 | GFQLNSYGIS | VIYSDGRRTFYPDSVK | GRAAGTFDS
no signal | 0/3 | GFTLNSYGIS | VIYSDGRRTFYGDSLK | SRTAGTFDS
no signal | 0/3 | GFTLNSYGIS | VIYSDGRRTFWSDSVK | GRAMGTFDS
530 nM | 3/3 | GFTLNSYGIS | VIYSDGRRIFYGDSVK | KRAAGTFDH
25 µM | 1/3 | GFTLNSYGIS | KIYSDGRRTFYGDSVE | GSAAGTFDS
no signal | 0/3 | GFTLNSYGES | NIYSDGRRTFYGDSVK | GRCAGTFDS
580 nM | 3/3 | GFTLNSYGIS | VIYSDGRRTFYGWSVL | GRAAGTFDE
340 µM | 3/3 | GFTQNSYGLS | FIYSDGRRTFYGDSVK | GRAAGTFDS
no signal | 0/3 | GFTLNSCGIS | VISSDGRRTSYGDSVK | GRAAGTFDS
no signal | 0/3 | GFTLNSYGIS | VIYSDGRRTVYGDSVK | GRARGTFDS
170 nM | 3/3 | GFTLNSYGIS | VIYSDGDRTFYGDSVK | GRAACVFDS
no signal | 0/3 | GFTLNSYPIS | VIYSDGRRTFRGDSVK | GRAAGTFDS
no signal | 0/3 | GFTLLSYGIS | VIYSDGRRTFYEDSVA | GRAAGTFDS
no signal | 0/3 | MFTLNSYGIS | VIYSDGRQTFYGWSVK | GRAAGTFDS
5.9 µM | 1/3 | GFTLNSYGIS | VAYYDGRRTFYGDSVK | GRAEGTFDS
no signal | 0/3 | GFTLHSYGIS | RIYSDGRRTFYGTSVK | GRAAGTFDS
85 µM | 1/3 | GFTLNSYGIS | VIYSDGRHTFMGDSVK | YRAAGTFDS
180 nM | 3/3 | GFTLISYGIS | VIYSDGRRTFYGDSVK | GRAAGAFDS
260 µM | 1/3 | GFTLNSYGIS | VIYSDGRRTRYGDSVK | GGAAGTQDS
6.2 µM | 1/3 | RFTLNSYGIS | VIYSDGRRTFYYDYVK | GRAAGTFDS
no signal | 0/3 | GFTFNHYGIS | VIYSDGRMTFYGDSVK | GRAAGTFDS
no signal | 0/3 | GFTPNSYGIS | VIYSDGRRTFYGGSVM | GRAAGTFDS
16 µM | 2/3 | GRTLNSYGIS | VIYSDWRQTFYGDSVK | GRAAGTFDS
22 µM | 1/3 | GFTLNSYSIS | VIYSDGRRTFYGDSVK | GRAAGGFSS
9.8 µM | 1/3 | GFTLNSYGIS | VICSDIRRTFYGDSVK | GRAAGTYDS
no signal | 0/3 | GFTLNSYGIS | RWYSDGRRTFYGDSVK | GRAALTFDS
no signal | 0/3 | GFTLNSYGIW | VIYSDGPRTFYGDSVK | GRAADTFDS
no signal | 0/3 | GFTLNSYGIS | KIYSDGMRTFYGDSVK | GRAAGTFDS
no signal | 0/3 | GFTLNSYGIS | VIYSDECRTFYGWSVK | GRAAGTFDS
46 µM | 3/3 | GFTLKSYGID | VIYSDGRRTFYGDSVK | IRAAGTFDS
46 µM | 3/3 | GSTLNHYGIS | VIYSDGRRTFYGDSVK | GRAAGTDDS
no signal | 0/3 | GFTLNSYGIS | VIYSDGRRTFYGRSVK | GRAAGEFDR
no signal | 0/3 | VFTLNSYGIS | VIYSDGRRTFMGDSVK | GRANGTFDS
8.9 µM | 1/3 | GFTLNSYGPS | VIYSDGRRTCYGRSVK | GRAAGTFDS
75 µM | 2/3 | VFTLNSYGIS | CIYSDGRYTFYGDSVK | GRAAGTFDS
380 µM | 1/3 | GFTHNSYGIS | VIYSDGRRTFYGDEVK | GRAAGTFDS
3.0 µM | 3/3 | GFTLNSQGIS | VIYSDGRRHWYGDSVK | GRAAGTFDS
no signal | 0/3 | GFTLNSYGIS | VIYSDGRRTFYGDSVK | DRAAMTFDS
7.6 nM | 3/3 | GFTLNSYGIS | VIYSDGRRTFYGDGVK | GSAAGTQDS
no signal | 0/3 | GFCLNSYGIE | VIMSDGRRTFYGDSVK | GRAAGTFDS
110 µM | 1/3 | GCTLNSYGIS | VDYSDGRRTFYGDSVK | GRAAGTFDA
no signal | 0/3 | GFTLMSGGIS | VIYSDGRRTTYGDSVK | GRAAGTFDS
no signal | 0/3 | QFTLNSYGIL | VIYSDGRRTFYGDSVK | GRAAGTFVS
28 nM | 3/3 | GFTLNSYGIS | VIYSDGRRTFYYESVK | GRTAGTFDS
no signal | 0/3 | GFTANSYGIS | VIYSDGPRTCYGDSVK | GRAAGTFDS
no signal | 0/3 | GATLNSYGIS | VKYSDGRRTFYGDSVK | CRAAGTFDS
1.7 mM | 1/3 | GFTLNSYGIS | SIYSDGRRTRTGDSVK | GRAAGTFDS
4.9 nM | 3/3 | GFTLNSYGIS | VIYSDGRRTFYGDSVK | GRAAWIFDN
3.6 µM | 1/3 | GFTLNSYGIS | VIYCDGFRLFYGDSVK | GRAAGTFDS
5.4 µM | 1/3 | GFTLNSYGII | VIYSDGRRTFYGDSVK | GRAACTFDS
140 nM | 1/3 | PFGLNSYGIS | VIYSDGRRTFYGDSVK | GRAAGTFDS
120 µM | 2/3 | GFTLTSYGIS | VIYSDGRRTFYGDSVK | GAAAWTFDS
6.6 µM | 2/3 | GFTLNSYGIS | NIYSDGRKTFYGDSVK | GWAAGTFDS
52 nM | 3/3 | GFTLNSYGIS | VIYSDGRRTFYIDSVK | GRAAGTNDS
870 nM | 2/3 | GFTLNSYGIS | VIYSDGRRTFYLDSVC | GRAAGTFDS
1.3 µM | 3/3 | GFTLNSYGIS | VIYSDGRRTFYGNSVQ | GRAAGTFNS

4 of these entries, quoted again:

{"CDR-H1": "GFQLNSYGIS", "CDR-H2": "VIYSDGRRTFYPDSVK", "CDR-H3": "GRAAGTFDS", "apparent Kd": "220 nM", "detected": "3/3"}
{"CDR-H1": "GSTLNHYGIS", "CDR-H2": "VIYSDGRRTFYGDSVK", "CDR-H3": "GRAAGTDDS", "apparent Kd": "46 µM", "detected": "3/3"}
{"CDR-H1": "VFTLNSYGIS", "CDR-H2": "VIYSDGRRTFMGDSVK", "CDR-H3": "GRANGTFDS", "apparent Kd": "no signal", "detected": "0/3"}
{"CDR-H1": "GFTLNSYPIS", "CDR-H2": "VIYSDGRRTFRGDSVK", "CDR-H3": "GRAAGTFDS", "apparent Kd": "no signal", "detected": "0/3"}

Three control strains display no target. For library AAYL49, 15% of the pairings with them gave a signal, with a median of 11 µM and one signal in twenty below 680 nM, so weak values seen in few replicates may be background. Parent in this assay: reference entry 4.4 nM, copy in this library 13 µM (one replicate of three).